Protein sequences, listed by entry. Tags and fused reporters are not part of them.
UniProt P30542, whole entry: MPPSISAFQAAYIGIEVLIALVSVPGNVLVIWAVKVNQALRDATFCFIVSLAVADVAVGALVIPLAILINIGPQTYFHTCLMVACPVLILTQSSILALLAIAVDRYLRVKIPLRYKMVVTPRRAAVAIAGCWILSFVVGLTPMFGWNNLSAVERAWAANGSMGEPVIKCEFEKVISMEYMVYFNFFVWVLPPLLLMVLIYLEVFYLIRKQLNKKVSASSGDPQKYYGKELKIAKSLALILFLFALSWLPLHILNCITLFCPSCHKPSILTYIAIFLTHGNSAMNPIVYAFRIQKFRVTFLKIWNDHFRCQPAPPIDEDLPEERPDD

In ChEMBL document CHEMBL2010736 (ACS Med Chem Lett, 2011):

Legend:
Homo sapiens = species: Homo sapiens; assay: Selectivity ratio of Ki for human recombinant adenosine receptor-3 to Ki for human recombinant adenosine receptor-1
Adenosine receptor A1 = Adenosine receptor A1 (Homo sapiens, UniProt P30542); assay: Agonist activity at human recombinant adenosine receptor-1 expressed in CHO cells assessed as inhibition of forskolin-stimulated cAMP production at 10 uM preincubated for 45 mins prior forskolin-induction measured after 15 mins by immunoassay relative to 10 uM CPA; type: functional, cell-based

| Ratio Ki (Homo sapiens) | inhibition (Adenosine receptor A1) [%] | SMILES |
| --- | --- | --- |
| 2 | – | O[C@@H]1[C@H](O)[C@@H]2C[C@@H]2[C@H]1n1cnc2c(NC3CCCCCC3)nc(Cl)nc21 |
| – | 45.5 | CC(Nc1nc(Cl)nc2c1ncn2[C@H]1[C@H](O)[C@H](O)[C@@H]2C[C@@H]21)C1CC1 (mixture of isomers) |
